US20080113014A1, “Method for Screening for Compounds Safe for Gastric Mucosa” (LTT BIO-PHARMA CO., LTD., priority 2004, published 2008)

Assay: Calcein leakage from calcein-encapsulating liposome in the presence of NSAIDs (membrane toxicity)
Conditions: 30° C., 10 min, fluorescence at 520 nm; order among the five NSAIDs of the same figure

CS(=O)(=O)Nc1ccc([N+](=O)[O-])cc1Oc1ccccc1 [nimesulide]
calcein leakage from the liposome (membrane toxicity), rank order: decreased in the same order
